{
  "source": "patent US7737153B2",
  "about": "“Heteroaryloxy-substituted phenylaminopyrimidines as rho-kinase inhibitors” (Bayer Schering Pharma Aktiengesellschaft, priority 2002, dated 2010)",
  "tested_on": "isolated rings of the saphenous artery of rabbits",
  "assay": "Vessel-relaxing action in vitro, phenylephrin-induced contractions of isolated saphenous artery rings",
  "set-up": "species or system rabbit",
  "settings": "Oryctolagus cuniculus; contraction induced by 3×10^−8 g of phenylephrin/ml; concentration reducing control contraction by 50%",
  "procedure": "The inhibition of the enzyme is investigated in an in vitro assay with recombinant Rho kinase II. The vessel-relaxing action is determined using phenylephrin-induced contractions of isolated rings of the saphenous artery of rabbits.\nVessel-Relaxing Action In Vitro\nIndividual 3-mm-wide rings of the isolated saphenous artery of rabbits are introduced into 5 ml organ baths with Krebs-Henseleit solution (37° C., gassed with carbogen). The vessel tone is monitored isometrically and registered. Contractions are induced by addition of 3×10^−8 g of phenylephrin/ml, which is washed out again after 4 min. After a number of control cycles, the rings are pre-incubated with the substance to be examined, with the dosage being increased for each further cycle, and the subsequent contraction is compared to the intensity of the last control contraction.",
  "note": "pIC50: −log10 of the molar value.",
  "data": [
    {"smiles": "Nc1nc(Nc2ccc(Oc3ccnc4[nH]ccc34)c(F)c2)cc(-c2ccncc2)n1", "note": "[Example 19, N-[2-Amino-6-(4-pyridinyl)-4-pyrimidinyl]-N-[3-fluoro-4-(1H-pyrrolo[2,3-b]pyridin-4-yloxy)phenyl]amine]", "values": [
      {"measurement": "pIC50", "value": 6.46}
    ]}
  ]
}
